Data published in patent publication US20190031618A1, “BENZIMIDAZOLE DERIVATIVES USEFUL AS CB-1 INVERSE AGONISTS” (Janssen Pharmaceutica NV, priority 2015, published 2019).

Protein sequences, listed by entry. Tags and fused reporters are not part of them.
UniProt P21554, whole entry: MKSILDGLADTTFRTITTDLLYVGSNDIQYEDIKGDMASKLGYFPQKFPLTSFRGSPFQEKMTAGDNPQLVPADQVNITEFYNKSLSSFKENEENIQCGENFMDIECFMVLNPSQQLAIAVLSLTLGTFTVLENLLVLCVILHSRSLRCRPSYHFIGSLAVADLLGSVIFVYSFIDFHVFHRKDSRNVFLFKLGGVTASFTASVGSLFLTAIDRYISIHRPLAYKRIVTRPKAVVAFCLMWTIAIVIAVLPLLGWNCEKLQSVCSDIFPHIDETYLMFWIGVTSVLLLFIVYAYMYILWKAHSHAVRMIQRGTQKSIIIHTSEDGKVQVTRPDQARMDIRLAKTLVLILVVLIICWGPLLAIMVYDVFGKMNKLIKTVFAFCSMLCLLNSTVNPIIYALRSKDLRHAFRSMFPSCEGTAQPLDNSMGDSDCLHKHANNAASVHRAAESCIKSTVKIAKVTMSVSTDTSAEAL
UniProt P34972, whole entry: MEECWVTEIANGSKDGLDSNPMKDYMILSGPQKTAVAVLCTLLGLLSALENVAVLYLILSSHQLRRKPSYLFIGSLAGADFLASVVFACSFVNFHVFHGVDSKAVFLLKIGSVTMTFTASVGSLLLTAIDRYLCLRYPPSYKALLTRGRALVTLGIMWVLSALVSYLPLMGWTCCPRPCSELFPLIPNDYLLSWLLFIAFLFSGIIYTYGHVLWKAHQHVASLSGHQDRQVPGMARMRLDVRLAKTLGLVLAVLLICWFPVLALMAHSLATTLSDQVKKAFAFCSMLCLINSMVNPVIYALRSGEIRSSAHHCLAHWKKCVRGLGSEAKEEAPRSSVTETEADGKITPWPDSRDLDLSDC

Experiments:
[1] = target: Human CB1R (Cannabinoid receptor 1) (Homo sapiens, UniProt P21554); test: CB-1 in vitro cAMP (HTRF) assay; conditions: read-out: CB1 HEK_cAMP EC50, HEK cells, 250 nM forskolin, mean where tested more than once
[2] = target: Human CB2R (Cannabinoid receptor 2) (Homo sapiens, UniProt P34972); test: CB-2 in vitro cAMP (HTRF) assay; conditions: read-out: CB2 HEK_cAMP EC50, HEK cells, 250 nM forskolin, mean where tested more than once
Text: CB1 and CB2 receptors are Gi-coupled GPCR. Activation of CB1 and CB2 receptors results in a decrease in cAMP production. An inverse agonist of the CB1 or CB2 receptor results in the opposite effect, an increase of cAMP production. The principle of this assay is based on HTRF® technology (Homogeneous Time-Resolved Fluorescence). The method is a competitive immunoassay between native cAMP produced by cells and the cAMP labeled with the fluorophore d2. The tracer binding is quantified by a Mab anti-cAMP labeled with Eu3+TBP-NHS Cryptate (supplied as part of the assay kit). The specific signal (i.e. energy transfer) is inversely proportional to the concentration of cAMP in the standard or sample.
Human CB1R (Cannabinoid receptor 1) was stably transfected in HEK-293 cells (DiscoveRx, cat: 93-0200C1). Human CB2R (Cannabinoid receptor 2) was stably transfected in HEK-293 cells (DiscoveRx, cat: 93-0201C1). Cell cultures were maintained in media: DMEM (Invitrogen Cat#12430-054) supplemented with 10% HI FBS (Invitrogen Cat#16140-071), 1% L-glutamine (Invitrogen Cat#25030-081), 0.2 mg/ml Hygromycin B (Invitrogen Cat#10687-010), 600 μg/mL G418 (Invitrogen Cat#10131-035), and 1× Penn/Strep (Invitrogen 15140-122). After cell expansion, aliquots were cryo-stored in media containing 5% DMSO (Pierce Cat#20684).
One day prior to experiments media was warmed to 37° C. and the cryo-stored cells were thawed in a 37° C. water bath. The cells were then added to media (10× volume) and the mixture was centrifuged at 1000 RPM for 5 min. The supernate was removed and the cells were re-suspended in media. A sample of the cell suspension was evaluated on a Cedex XS automated cell counter (Innovatis Systems) to determine viable cells/ml. Additional media was added to the cells to achieve a final cell density of 4E5 cells/mL. The cells were then plated into 384 well PDL white solid bottom plates (Greiner, Cat#781945) at 20 μL per well using a Multidrop (Thermo Scientific). Cells were removed from Row P (location of cAMP standards). Two columns of cells were plated into a clear bottom 384 well PDL coated plate (Greiner, Cat#781944) to view confluence the day of the assay. The cell plates were lidded and stored for 15 minutes in a hood, then transferred to an incubator (37° C., 5% CO2, 95% humidity) overnight.
DMSO was added to all wells of 384 well V bottom polystyrene plate (Greiner, Cat#781280) except to columns 1 and 13, rows O and P and wells M13-M23 and N13-N23. Test compounds (60 μL, 10 mM) were added to Column 1 and 13 (A1 through N1 and A13 through L13). Test compounds were serially diluted 1/3 by transferring and mixing 20 μl sample with 40 μL DMSO.
DMSO (40 μL) was added to wells of 384 well V bottom polystyrene plate: O2 through O11, M14 through M23, N14 through N23, and O14 through O23. AM630 (also known as [6-iodo-2-methyl-1-[2-(4-morpholinyl)ethyl]-1H-indol-3-yl](4-methoxyphenyl)-methanone, Cayman Chemical, Cat#10006974) (60 μL, 10 mM) was added to O1; and 1-(2,4-dichlorophenyl)-7-[(4-fluorophenyl)methylene]-4,5,6,7-tetrahydro-N-1-piperidinyl-1H-benzimidazole-3-carboxamide (60 μL, 10 mM) was added to N13. The control was serially diluted 1/3 by transferring and mixing 20 μl sample with 40 μL DMSO. This process resulted 11 doses per control, 10 mM to […].
Cells plated the day prior to the assay in clear bottom plates were viewed on an inverse microscope to ensure confluency in the range of 60-75%. […]

| EC50 [1] [µM] | EC50 [2] [µM] | Compound |
| --- | --- | --- |
| 0.363 | 6.89 | O=C(O)c1cccc(CN2CCC(n3c(C4CC4)nc4ccc(C(c5ccc(Cl)cc5)c5ccc(Cl)cc5)cc43)C2)c1 (stereo not drawn) |
| 0.29 | 3.62 | O=C(O)c1ccc(N2CCC(n3c(C4CC4)nc4ccc(C(c5ccc(Cl)cc5)c5ccc(Cl)cc5)cc43)CC2)cc1 |
| 0.0382 | > 10 | CCc1nc2ccc(C(c3ccc(Cl)cc3)c3ccc(Cl)cc3)cc2n1C(C)Cc1ccc(Cl)cc1 (racemic) |
| 0.243 | > 10 | CCOC(=O)N1C2CCC1CC(n1cnc3ccc(C(c4ccc(Cl)cc4)c4nccs4)cc31)C2 (stereo not drawn) |
| 0.0332 | 3.65 | CCc1nc2ccc(C(c3ccc(Cl)cc3)c3ccc(Cl)cc3)cc2n1C[C@H](C)c1ccccc1 |
| 0.867 | > 10 | CCc1nc2ccc(C(c3ccc(Cl)cc3)c3nccs3)cc2n1C1CC2CCC(C1)N2S(=O)(=O)C(F)(F)F (stereo not drawn) |
